Our source for the Ki values is ChEMBL document CHEMBL1126169, “8-Polycycloalkyl-1,3-dipropylxanthines as potent and selective antagonists for A1-adenosine receptors” (J Med Chem, 1992).

The chains behind the UniProt entries cited, without tags or fusion partners.
UniProt P47745, whole entry: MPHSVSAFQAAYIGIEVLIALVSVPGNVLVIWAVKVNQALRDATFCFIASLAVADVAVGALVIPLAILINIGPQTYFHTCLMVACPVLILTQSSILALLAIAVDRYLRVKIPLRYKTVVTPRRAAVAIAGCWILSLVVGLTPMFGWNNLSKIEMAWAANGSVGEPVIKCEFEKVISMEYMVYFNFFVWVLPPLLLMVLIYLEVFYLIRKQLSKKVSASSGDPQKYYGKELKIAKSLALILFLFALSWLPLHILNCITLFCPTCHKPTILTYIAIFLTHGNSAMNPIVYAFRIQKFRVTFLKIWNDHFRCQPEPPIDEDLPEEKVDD

This assay addresses Adenosine receptor A1 (Cavia porcellus, UniProt P47745). Kind of assay: Binding affinity against adenosine A1 receptor using N6-[3H]cyclohexyladenosine as radioligand in guinea pig forebrain membranes. The format is cell membranes, Brain membranes.

The structures appear in SMILES notation.

The term Ki denotes the dissociation constant of the complex between target and ligand, obtained from inhibition or displacement. The low end stands for higher affinity, the high end for lower affinity. `CCCn1c(=O)c2[nH]c(-c3cnsn3)nc2n(CCC)c1=O` showed a Ki of 5.4 µM.
